Measured values: ChEMBL document CHEMBL1944627, “[¹⁸F]GE-180: a novel fluorine-18 labelled PET tracer for imaging Translocator protein 18 kDa (TSPO)” (Bioorg Med Chem Lett, 2012)

Experiments:
[1] = Ratio of drug uptake in olfactory bulb to striatum in Sprague-Dawley rat at 1 to 3 MBq, iv after 30 mins by gamma counting; conditions: in vivo, 0.5 h
[2] = Ratio of drug uptake in striatum in Sprague-Dawley rat at 1 to 3 MBq, iv after 2 mins to drug uptake in striatum in Sprague-Dawley rat at 1 to 3 MBq, iv after 30 mins; conditions: in vivo

Ratio [1] | Ratio [2] | Structure (SMILES)
3.72 | 4.27 | CCN(CC)C(=O)C1CCCc2c1c1cc(F)ccc1n2CC[18F] (stereo unspecified)
1.33 | 3.88 | O=C(C1CCCc2c1c1ccccc1n2CC[18F])N1CCCC1 (stereo unspecified)

Structure (SMILES) | Ratio [1] | Ratio [2]
COc1ccc(OC)c(CN(C(=O)C[18F])c2ccccc2Oc2ccccc2)c1 | 3.5 | 4.64
